In general, Kd refers to the constant that tells how readily two partners part at equilibrium.

Amino acid sequences for entries named in this document (tags omitted).
UniProt O60674, whole entry I682F: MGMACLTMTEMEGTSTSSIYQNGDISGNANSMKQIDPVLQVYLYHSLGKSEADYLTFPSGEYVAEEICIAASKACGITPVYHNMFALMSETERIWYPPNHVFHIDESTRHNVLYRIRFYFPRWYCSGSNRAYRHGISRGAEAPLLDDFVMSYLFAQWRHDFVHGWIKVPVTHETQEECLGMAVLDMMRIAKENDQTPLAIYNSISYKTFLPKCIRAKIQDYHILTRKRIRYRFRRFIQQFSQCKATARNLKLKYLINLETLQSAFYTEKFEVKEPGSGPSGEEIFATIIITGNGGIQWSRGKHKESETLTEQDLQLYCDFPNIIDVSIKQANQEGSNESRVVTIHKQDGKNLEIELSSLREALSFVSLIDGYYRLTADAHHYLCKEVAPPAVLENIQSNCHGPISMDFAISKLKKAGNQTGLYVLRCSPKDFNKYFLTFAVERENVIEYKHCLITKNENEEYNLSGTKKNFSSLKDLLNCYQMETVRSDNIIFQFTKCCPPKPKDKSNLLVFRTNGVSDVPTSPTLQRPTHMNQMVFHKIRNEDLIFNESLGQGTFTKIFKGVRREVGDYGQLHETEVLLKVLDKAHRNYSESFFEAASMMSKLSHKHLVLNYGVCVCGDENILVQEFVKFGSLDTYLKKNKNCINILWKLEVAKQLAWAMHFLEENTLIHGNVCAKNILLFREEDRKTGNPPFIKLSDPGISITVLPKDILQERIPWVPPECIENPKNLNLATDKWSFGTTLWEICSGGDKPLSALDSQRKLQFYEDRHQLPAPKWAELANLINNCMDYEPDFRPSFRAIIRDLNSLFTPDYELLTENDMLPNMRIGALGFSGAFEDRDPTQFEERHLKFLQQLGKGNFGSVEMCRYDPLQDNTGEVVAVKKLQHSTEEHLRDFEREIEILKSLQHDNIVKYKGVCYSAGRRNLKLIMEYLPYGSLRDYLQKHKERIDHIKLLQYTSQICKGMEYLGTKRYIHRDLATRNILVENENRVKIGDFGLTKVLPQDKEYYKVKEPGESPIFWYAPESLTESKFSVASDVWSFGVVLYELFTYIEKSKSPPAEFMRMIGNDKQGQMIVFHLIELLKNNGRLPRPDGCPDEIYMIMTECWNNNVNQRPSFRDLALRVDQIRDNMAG

The target in data set [1] is T1, JAK2 (Homo sapiens, UniProt O60674).
T1 construct: purchased Eurofins DiscoveRx
The data set can be described thus: KdELECT Kd measurement (KINOMEscan platform), JAK2. Format: binding. The settings on record: read-out: Kd to JAK family kinases, JAK2.

Data set [2] addresses T2, JAK2 (Homo sapiens, UniProt O60674, I682F).
T2 construct: endogenous in cells; host or cells: MHH-CALL-4
Briefly: Target degradation (Western Blot) in MHH-CALL-4 cells, JAK2. Format: cell-based. The settings on record: 100 nM PROTAC at 24 h. (In western blotting, separated proteins are transferred to a membrane and probed.)

The subject of data set [3] is Human CD45+ leukemic cells from patient derived xenografts (PDX). Briefly: Ex vivo cytotoxicity (MTT) in PDX leukemic cells. The settings on record: FIG. 6A.

Molecules are shown by their SMILES.

As for `CCS(=O)(=O)N1CC(CC#N)(n2cc(-c3ncnc4[nH]ccc34)cn2)C1` [Baricitinib, baricitinib, reference compound], in data set [1], the Kd was 0.092 nM.

As for `CCS(=O)(=O)N1CC(CC#N)(n2cc(-c3nc(Nc4ccc(C(=O)NCCCCNc5cccc6c5C(=O)N(C5CCC(=O)NC5=O)C6=O)cc4)nc4[nH]ccc34)cn2)C1` (stereo not shown) [Compound 6], the “Target Degradation (Western Blot) JAK2” value in data set [2] is reported as 3 (3 = Strong (>60% degradation at 24 h)).

Regarding `CCS(=O)(=O)N1CC(CC#N)(n2cc(-c3nc(Nc4ccc(C(=O)NCCN5CCN(c6ccc7c(c6)C(=O)N(C6CCC(=O)NC6=O)C7=O)CC5)cc4)nc4[nH]ccc34)cn2)C1` (stereo not shown) [Compound 8], in data set [2], the “Target Degradation (Western Blot) JAK2” value was 3 (3 = Strong (>60% degradation at 24 h)).

Take `N#CC[C@H](C1CCCC1)n1cc(-c2ncnc3[nH]ccc23)cn1` [Ruxolitinib, ruxolitinib, reference compound]: the “cytotoxicity in PDX cells ex vivo” value in data set [3] is listed as “not”.

Source of the values: US12624038B2, “Molecules and methods related to treatment of uncontrolled cellular proliferation” (ST. JUDE CHILDREN'S RESEARCH HOSPITAL, priority 2019, dated 2026).
